# Yeast mating assay 2: variants of the scFv Ab-91

The target is the same throughout: PDVDLGDISGINAS, from the HR2 region of SARS-CoV-2 spike.

Parent scFv Ab-91: VL joined to VH by three GGGGS repeats. Changes lie in the heavy chain CDRs alone.
VL: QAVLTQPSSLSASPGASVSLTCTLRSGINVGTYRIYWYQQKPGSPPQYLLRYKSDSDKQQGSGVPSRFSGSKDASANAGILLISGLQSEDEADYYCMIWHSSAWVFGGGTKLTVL
VH: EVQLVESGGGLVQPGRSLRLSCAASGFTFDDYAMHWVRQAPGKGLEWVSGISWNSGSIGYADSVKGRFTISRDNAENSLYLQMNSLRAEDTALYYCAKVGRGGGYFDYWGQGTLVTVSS

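The library (AAYL51) carries one to three amino acid substitutions per variant, with no insertions or deletions. The scFvs were displayed on barcoded MATa yeast, the peptide on MATalpha yeast. The frequency of each diploid, read from paired DNA barcodes, reflects how well the two displayed proteins bind. A regression on co-assayed BCL2-family reference pairs converts the normalised counts of each replicate to an apparent Kd. Mating was done three times.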

Changes read parent residue, position, new residue, counted from the first residue of the VH shown. Affinities are written as log10 Kd with Kd in nM; a lower number is a better binder. A mean of the replicates is given; it leaves out those without a signal. "nd" means that the variant was in the library but no mating with the target was seen in any replicate; the authors take this as a sign of poor binding, and no number exists. Three control strains display no target. For library AAYL51, 21% of the pairings with them gave a signal, with a median of 4.54 and one signal in twenty below 3.26, so weak values seen in few replicates may be background.

| changes | mean log10 Kd (nM) | detected |
|---|---|---|
| M34K/I51L/S57W | 5.12 | 1 of 3 |
| N54P/R101A/G102D | nd | 0 of 3 |
| V64I/G102C/F106P | 6.33 | 2 of 3 |
| T28M/D30P/N54K | 3.46 | 1 of 3 |
| I58P/D62V/S63Y | 5.00 | 2 of 3 |
| I51Y/A61K | 3.74 | 1 of 3 |
| Y32V/S52K/F106T | 5.22 | 1 of 3 |
| V99S/R101Y/F106A | 4.55 | 1 of 3 |
| W53R/G103N/F106A | 3.73 | 1 of 3 |
| Y32H/G56D/S57K | 3.14 | 3 of 3 |
| I51M/V64Y/Y108V | 3.98 | 1 of 3 |
| M34R/Y105E/D107P | nd | 0 of 3 |
| S52I/W53I/G100C | nd | 0 of 3 |
| Y32V/H35M/Y105F | nd | 0 of 3 |
| H35A/I51E/Y105E | nd | 0 of 3 |
| G26A/F27I/G104Y | nd | 0 of 3 |
| S63I/G104F/F106R | 5.72 | 2 of 3 |
| F29Q/N54H/G103Q | nd | 0 of 3 |
| M34P/S63K/R101T | 1.88 | 3 of 3 |
| G26V/Y108W | nd | 0 of 3 |
| I58N/A61G/D62S | 4.43 | 3 of 3 |
| T28D/D31S/V64K | 4.00 | 2 of 3 |
| W53V/V99H/G100N | 5.38 | 1 of 3 |
| N54R/I58L/F106V | nd | 0 of 3 |
| D30Y/K65P/G100R | 4.00 | 1 of 3 |
| S52R/R101V/D107E | 3.76 | 2 of 3 |
| G26S/A33G/V99T | 3.11 | 3 of 3 |
| W53R/S55K/A61I | 3.82 | 1 of 3 |
| G50H/Y105R | nd | 0 of 3 |
| D31P/R101C | nd | 0 of 3 |
| T28A/S57K/V64W | 4.21 | 2 of 3 |
| H35Q/N54A/I58D | 6.06 | 1 of 3 |
| I51A/V99W/R101I | 4.72 | 1 of 3 |
| R101S/G102F | 3.45 | 2 of 3 |
| A61L/V99C/Y105T | 3.33 | 3 of 3 |
| Y32Q/S55M/G102Q | nd | 0 of 3 |

The remaining entries, values ahead:

| mean log10 Kd (nM) | detected | changes |
|---|---|---|
| 5.63 | 3 of 3 | F29V/H35R/S55G |
| 5.22 | 2 of 3 | F29K/G50V/V99R |
| 5.42 | 1 of 3 | G104H/Y105R/Y108C |
| 5.15 | 3 of 3 | T28R/Y32G/G102Y |
| 4.24 | 1 of 3 | D31P/Y60I/G100R |
| 4.65 | 1 of 3 | V64I/Y105K |
| nd | 0 of 3 | F27N/V64D/D107A |
| nd | 0 of 3 | G50Q/Y60N/S63N |
| 4.02 | 2 of 3 | A33M/W53V/G100A |
| 4.41 | 2 of 3 | M34W/S55K/G103I |
| nd | 0 of 3 | G26F/V99T/D107E |
| 4.53 | 1 of 3 | W53M/Y60G/G103H |
| nd | 0 of 3 | Y32W/Y60M/G103F |
| 3.59 | 1 of 3 | G26N/I51W/G102W |
| nd | 0 of 3 | S52Y/G104P |
| 5.15 | 3 of 3 | G50L/I51L |
| 4.86 | 2 of 3 | T28V/S52M/G103W |
| 0.24 | 3 of 3 | T28Q/D31R/I58Q |
| nd | 0 of 3 | Y32N/S55W/G59I |
| 4.06 | 1 of 3 | G50C/V64K |
| nd | 0 of 3 | F27R/G56W |
| 3.27 | 1 of 3 | A33D/G56L/G100S |
| 4.73 | 3 of 3 | G50F/W53Q/A61C |
| nd | 0 of 3 | F29R/Y32T/K65E |
| nd | 0 of 3 | S55W/G56S/Y60F |
| 4.47 | 2 of 3 | M34G/A61I/G104L |
| nd | 0 of 3 | F29N/A33R/S52E |
| nd | 0 of 3 | G26T/F29W/G103I |
| 5.05 | 1 of 3 | G26P/M34D/S63D |
| 4.63 | 1 of 3 | S57P/G103Y/Y108I |
| 5.33 | 3 of 3 | K65D/G104T/Y105T |
| nd | 0 of 3 | A33Q/V64S |
| nd | 0 of 3 | I51D/G59I/V99C |
| nd | 0 of 3 | G26C/H35Q/R101P |
| 3.09 | 3 of 3 | G26K/S55C |
| 5.19 | 2 of 3 | G26P/T28I/D107C |

11 of these entries, quoted again:

{"changes": "H35A/I51E/Y105E", "mean log10 Kd (nM)": "nd", "detected": "0 of 3"}
{"changes": "K65D/G104T/Y105T", "mean log10 Kd (nM)": "5.33", "detected": "3 of 3"}
{"changes": "V64I/Y105K", "mean log10 Kd (nM)": "4.65", "detected": "1 of 3"}
{"changes": "W53M/Y60G/G103H", "mean log10 Kd (nM)": "4.53", "detected": "1 of 3"}
{"changes": "T28M/D30P/N54K", "mean log10 Kd (nM)": "3.46", "detected": "1 of 3"}
{"changes": "I51M/V64Y/Y108V", "mean log10 Kd (nM)": "3.98", "detected": "1 of 3"}
{"changes": "F29R/Y32T/K65E", "mean log10 Kd (nM)": "nd", "detected": "0 of 3"}
{"changes": "G50F/W53Q/A61C", "mean log10 Kd (nM)": "4.73", "detected": "3 of 3"}
{"changes": "S57P/G103Y/Y108I", "mean log10 Kd (nM)": "4.63", "detected": "1 of 3"}
{"changes": "M34W/S55K/G103I", "mean log10 Kd (nM)": "4.41", "detected": "2 of 3"}
{"changes": "S55W/G56S/Y60F", "mean log10 Kd (nM)": "nd", "detected": "0 of 3"}

In this assay the parent's reference entry averaged 1.86; its copy inside this library read 0.88.

Source: Engelhart et al. 2022 (doi:10.1038/s41597-022-01779-4), MIT Lincoln Laboratory and A-Alpha Bio; data file from the FLAb repository.